Experimental findings from PubChem BioAssay AID624169 (The Scripps Research Institute Molecular Screening Center, 2012) are described below.

Protein sequences, listed by entry. Tags and fused reporters are not part of them.
UniProt P35363, whole entry, looked up: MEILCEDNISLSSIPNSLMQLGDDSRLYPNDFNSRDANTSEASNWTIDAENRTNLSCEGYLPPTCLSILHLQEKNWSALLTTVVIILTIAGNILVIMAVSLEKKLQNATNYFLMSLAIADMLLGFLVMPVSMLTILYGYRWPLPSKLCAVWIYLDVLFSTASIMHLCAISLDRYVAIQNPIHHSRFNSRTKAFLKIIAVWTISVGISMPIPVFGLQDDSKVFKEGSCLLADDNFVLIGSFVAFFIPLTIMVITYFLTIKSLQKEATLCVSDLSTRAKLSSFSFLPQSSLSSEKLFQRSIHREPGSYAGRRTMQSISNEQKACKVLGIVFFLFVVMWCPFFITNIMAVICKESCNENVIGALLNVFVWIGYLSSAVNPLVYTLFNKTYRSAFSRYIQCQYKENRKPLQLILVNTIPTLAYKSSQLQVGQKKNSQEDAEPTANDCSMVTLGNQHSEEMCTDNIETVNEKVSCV

Only a part is listed here, and it is no random draw. Activity calls are given as the source filed them.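 How the source made its calls: active means activation above a run cutoff, the mean activation of all tested compounds plus 3 SD (cut at about 14% in these data); inactive means the rest.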

For the assay, the target named is 5-hydroxytryptamine receptor 2A (Mus musculus) (UniProt P35363). As to the kind of experiment: mouse Htr2a agonists via beta-arrestin recruitment, primary screen, cell-based, luminescence (AID 624169).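 Further: 0% = plate median of compound wells and 100% = 30 µM serotonin.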 Particulars: CHO-K1 mHTR2A beta-arrestin complementation, at 7.6 µM, active compounds read high, percent of 30 µM serotonin response. For orientation: Recruitment of arrestin is a read-out of receptor activation apart from second messengers.
For `[N-]=[N+]=NC1CCCCC1NC(=O)c1cc([N+](=O)[O-])cc([N+](=O)[O-])c1` (centres undefined), the activation is inactive: -4.67%.

`CC(C)c1ccc(OP(=O)(Nc2ccccn2)Oc2ccccc2F)cc1` (centres undefined): the activation was inactive: 3.67%.

Take `COC(=O)C1(C)COP(=O)(N2CCCCCC2)OC1` (centres undefined): the activation is inactive: 3.27%.

In the case of `ClCCSc1nnc(-c2cccnc2)o1`, the activation is inactive: -1.29%.

On to `O=[N+]([O-])c1cc([N+](=O)[O-])c(-c2ccn[nH]2)s1`, for which the activation is inactive: 2.24%.

For the compound `CCN(CC)C(=S)SC(NC=O)C(Cl)(Cl)Cl` (centres undefined), the activation is inactive: 7.95%.

Consider `O=C(OC1CN2CCC1CC2)c1cccc2[nH]cnc12` (centres undefined), for which the activation was inactive: 5.29%.

As for `CC(C)NC(=O)NP(=O)(Oc1ccccc1)Oc1ccccc1`, the activation was inactive: 2.1%.

`CC1CCNP(=O)(N(CCCl)CCCl)O1` (centres undefined): the activation was inactive: -1.16%.

Take `O=C(O)C(O)c1ccc(N(CCCl)CCCl)cc1` (centres undefined): the activation was inactive: -0.35%.

For the compound `CCOC(=O)Nc1ccc([As](=O)(O)O)c(O)c1`, the activation was inactive: -0.05%.

Take `Cc1cc(SC(NC(=O)c2ccccc2)C(Cl)(Cl)Cl)nc(C(C)C)n1` (centres undefined): the activation was inactive: 8.56%.

Regarding `CCCCOc1ccc(C(=O)NCC2(N3CCCCC3)CCCCC2)cc1OC`, the activation is inactive: -6.95%.

With `COP(=O)(OC)N1CC1c1ccccc1` (centres undefined), the activation was inactive: 3.42%.

With `CCOC(=O)Nc1cccc([As](=O)(O)O)c1`, the activation is inactive: -4.47%.

Turning to `O=[N+]([O-])c1ccc(Nc2ccc(Oc3ccc([N+](=O)[O-])cc3[N+](=O)[O-])cc2)c([N+](=O)[O-])c1`, the activation was inactive: 0.57%.

`Cc1cc(SC(NC=O)C(Cl)(Cl)Cl)ncn1` (centres undefined): the activation was inactive: 4.99%.

As for `O=P(Nc1ccccn1)(c1cccc2ccccc12)c1cccc2ccccc12`, the activation was inactive: 2.68%.

Consider `COC(=O)C1(C)COP(=O)(N2CCCC2)OC1` (centres undefined), for which the activation is inactive: -3.96%.

With `COP1(=S)c2c(C)nn(CCC#N)c2N=C(c2ccc(F)cc2)N1C` (centres undefined), the activation was inactive: -5.85%.

On to `O=C(Nc1ccncc1[N+](=O)[O-])c1ccc([N+](=O)[O-])cc1[N+](=O)[O-]`, for which the activation was inactive: 7.68%.

Take `O=C(COc1ccccc1)OC1CN2CCC1CC2` (centres undefined): the activation is inactive: -0.81%.

As for `O=C(O)C(=O)c1ccc(N(CCCl)CCCl)cc1`, the activation was inactive: -0.34%.

As for `CCOC(=O)c1ccc(NC(=O)C(C)(CCl)SC)cc1` (centres undefined), the activation was inactive: -1.86%.

On to `CSc1ccc(Nc2c([N+](=O)[O-])cc([N+](=O)[O-])cc2[N+](=O)[O-])cc1`, for which the activation is inactive: -11.1%.

Regarding `O=C(OC1CN2CCC1CC2)c1cccc([N+](=O)[O-])c1` (centres undefined), the activation is inactive: 3.13%.

Turning to `CCC(C)N(CC(C)C)C(=S)SC(NC(C)=O)C(Cl)(Cl)Cl` (centres undefined), the activation is inactive: 0.4%.

Take `COc1ccc(C2=NCC(CBr)S2)cc1` (centres undefined): the activation was inactive: -3.83%.

Take `CC(=O)N1C2C3N(C(C)=O)C1C1N(C(C)=O)C(C(N1C(C)=O)N3C(C)=O)N2C(C)=O`: the activation is inactive: -0.87%.

With `O=[N+]([O-])c1cccc2n[nH]nc12`, the activation was inactive: 1.6%.

With `O=[N+]([O-])c1cc([N+](=O)[O-])c(CCNc2ccccc2)c([N+](=O)[O-])c1`, the activation is inactive: -8.41%.

Consider `CCc1nc2c(n1)c1c(non1O)c1c2no[n+]1[O-]`, for which the activation was inactive: 1.1%.

With `Cc1ccc(NP(=O)(Oc2ccccc2)Oc2ccccc2)nc1`, the activation was inactive: -4.92%.

Regarding `C[N+]1=C2C=CC=CC=C2SC12C([N+](=O)[O-])=CC([N+](=O)[O-])=C[C-]2[N+](=O)[O-]` (centres undefined), the activation is inactive: -11.2%.

As to `Nc1ccc([As](=O)(O)c2ccc(N)cc2)cc1`, the activation was inactive: 3.32%.

As to `CCN(/C(=N/P(=O)(N1CCOCC1)N1CCOCC1)N1CCOCC1)c1ccc(OC)cc1`, the activation was inactive: -0.34%.

Take `CN(C)C(=O)OCCc1n(C)cc[n+]1C`: the activation was inactive: -2.59%.

Turning to `CC(C)=N/N=C(\N)N[N+](=O)[O-]`, the activation is inactive: 9.58%.

Consider `CC(C)c1nc(Nc2ccccc2)n(P(=O)(N(C)C)N(C)C)n1`, for which the activation is inactive: 4.48%.

As to `c1cc(-c2nn[nH]n2)ccc1-c1nn[nH]n1`, the activation is inactive: -2%.

As to `CC1CCN(C(=O)Oc2c(Cl)cc(Cl)c3cccnc23)CC1`, the activation was inactive: 3.11%.

Regarding `O=P1(N(CCCl)CCCl)OCCCS1` (centres undefined), the activation was inactive: 0.31%.

For the compound `O=C(Nc1cc([As](=O)(O)O)ccc1O)c1ccccc1`, the activation was inactive: 10.6%.

Regarding `CC(C)(C)C(=O)NC(Sc1ccncn1)C(Cl)(Cl)Cl` (centres undefined), the activation was inactive: -2.44%.

Regarding `O=[N+]([O-])c1ncn(CCn2ncnc2[N+](=O)[O-])n1`, the activation was inactive: 3.61%.

For `O=[N+]([O-])c1cccc(NC2=NCC(CBr)S2)c1` (centres undefined), the activation was inactive: -0.19%.

Turning to `COC(=O)C1(C)COP(=O)(Nc2ccccc2)OC1` (centres undefined), the activation was inactive: 2.69%.

As to `O=C(O)CNc1ccc([As](=O)(O)O)cc1`, the activation is inactive: 8.75%.

Turning to `CCCC1OP(N)(=O)OCC1CC` (centres undefined), the activation is inactive: 0.25%.

For the compound `O=C(O)c1ccccc1[As](=O)(O)O`, the activation is inactive: 1.27%.

Regarding `CC(=O)Nc1ccc([As](=O)(O)O)cc1`, the activation is inactive: 0.26%.

For `CN(C)P(=O)(N(C)C)n1c(Nc2ccccc2)nnc1-c1ccccc1`, the activation was inactive: -5.59%.

As to `O=P(Nc1nc2ccc(Cl)cc2s1)(c1ccccc1)c1ccccc1`, the activation was inactive: -2.27%.

For `CN(C(=O)Cc1ccc(Cl)c(Cl)c1)[C@H]1CCCC[C@@H]1N1CCCC1`, the activation is inactive: -6.54%.

For `Cc1ccc(NP(=O)(Oc2ccccc2F)Oc2ccccc2F)nc1`, the activation was inactive: 3.47%.

Regarding `CCOP(=O)(Nc1ccccc1)OCC`, the activation was inactive: 13.4%.

Consider `Cc1cc(SC(NC(=O)c2ccc(F)cc2)C(Cl)(Cl)Cl)ncn1` (centres undefined), for which the activation was inactive: 0.89%.

On to `CCN(N=Nc1nonc1N)c1nonc1N`, for which the activation was inactive: 3.28%.

For the compound `Nc1cccc2ccc([As](=O)(O)O)cc12`, the activation was inactive: 5.34%.

With `NC(=O)c1cc([N+](=O)[O-])cc([N+](=O)[O-])c1N`, the activation is inactive: 3.76%.

For `Cc1ccc(N/C(=N/P(=O)(N2CCOCC2)N2CCOCC2)N2CCOCC2)cc1`, the activation was inactive: 0.48%.

On to `CN(C(=O)Cc1ccc(Cl)c(Cl)c1)[C@H]1CCCC[C@H]1N1CCCC1`, for which the activation is inactive: -3.43%.

In the case of `Cc1ccc(OP(=O)(Nc2nccs2)Oc2ccc(C)cc2)cc1`, the activation is inactive: -1.35%.

Regarding `COc1ccccc1OP(=O)(Nc1ccc(C)cn1)Oc1ccccc1OC`, the activation was inactive: -0.2%.
